# Measured affinities in a library of Ab-14 light chain variants

Target peptide (SARS-CoV-2 spike, HR2 region): PDVDLGDISGINAS

Ab-14 is the parent antibody, in scFv form: VH, then the linker GGGGSGGGGSGGGGS, then VL. The heavy chain is unchanged in all variants.
VH: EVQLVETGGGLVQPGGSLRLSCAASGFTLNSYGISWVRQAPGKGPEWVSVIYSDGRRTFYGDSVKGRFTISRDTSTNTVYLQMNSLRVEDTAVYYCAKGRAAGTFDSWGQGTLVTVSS
VL: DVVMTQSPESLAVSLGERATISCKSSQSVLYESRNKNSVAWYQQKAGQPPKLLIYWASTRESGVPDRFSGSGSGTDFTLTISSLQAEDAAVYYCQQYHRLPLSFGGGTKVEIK

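The parent was found by panning a naive human phage display library on the peptide. These sequences belong to a second round, designed from the earlier measurements on random variants of the parent. Their group label is 14L_Ctrl (Ctrl: baseline library sampled from a position-specific scoring matrix, with some repeated check sequences). The assay is AlphaSeq: two haploid yeast populations carry antibody and antigen on their surface. Pairs that bind mate more often; barcode pairs of the diploids are counted by sequencing. Each replicate has its own calibration line, from reference interactions of the BCL2 family. The assay was run in six technical replicates.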

Positions count from residue 1 of the parent VL; Q27G puts G in place of Q. The read-out is the apparent dissociation constant on a log10 scale (nM): the lower, the stronger. Replicates are averaged; those with no signal do not enter the mean. "n.d." means that the variant was in the library but no mating with the target was seen in that replicate; the authors take this as a sign of poor binding, and no number exists. The authors averaged sequences with at least three values out of six and counted those with two or fewer as poor binders.

| changes | log10 Kd, replicates | mean log10 Kd (nM) | control signals |
|---|---|---|---|
| Q27G R34F K36Y | n.d. n.d. 1.72 n.d. n.d. 1.60 | 1.66 | 0 of 18 |
| S26P T59Y S103G | n.d. n.d. n.d. n.d. n.d. n.d. | n.d. | 1 of 18 (1.90) |
| S26Q S33N A57R S62V | n.d. n.d. n.d. n.d. n.d. 2.06 | 2.06 | 0 of 18 |
| S25L L30Q A57R T59K Y97P L100T | n.d. n.d. n.d. n.d. n.d. n.d. | n.d. | 0 of 18 |
| S26I Y31D E32Y H98D | n.d. n.d. n.d. n.d. 2.98 n.d. | 2.98 | 0 of 18 |
| S25M Q27I V29W V39I | 0.97 1.40 n.d. 0.78 0.92 n.d. | 1.02 | 0 of 18 |
| S25M R34T W56G | n.d. n.d. n.d. n.d. n.d. 1.75 | 1.75 | 0 of 18 |
| S25Y V29M E61A L102R | n.d. 2.64 1.19 2.50 n.d. n.d. | 2.11 | 0 of 18 |
| Y31P E32S K36Q W56D E61V S103L | 0.76 0.31 0.36 0.48 0.72 0.59 | 0.54 | 1 of 18 (3.62) |
| S25V S28M Y31E R34G W56N E61Y H98V | 0.11 0.04 -0.16 -0.27 0.08 -0.07 | -0.05 | 1 of 18 (1.89) |
| L30G | 1.93 1.90 2.98 1.60 1.72 3.19 | 2.22 | 3 of 18 (2.93) |
| S25M V29H W56G H98A | -0.07 -0.30 -0.57 -0.60 -0.12 0.41 | -0.21 | 1 of 18 (1.55) |
| E61N | n.d. 1.11 1.89 1.41 2.09 1.26 | 1.55 | 0 of 18 |
| Y31L T59M | 1.48 1.63 0.87 2.64 3.54 n.d. | 2.03 | 0 of 18 |
| P101H | n.d. n.d. n.d. n.d. n.d. n.d. | n.d. | 0 of 18 |
| S26E V39E W56R | n.d. n.d. n.d. n.d. n.d. n.d. | n.d. | 0 of 18 |
| W56Q H98Y S103G | 0.31 0.39 0.14 -0.03 0.22 0.51 | 0.26 | 1 of 18 (0.92) |
| E32P | 2.13 3.24 3.04 3.02 n.d. 1.85 | 2.66 | 0 of 18 |
| Q27N L30T S58T | n.d. n.d. 1.50 n.d. 3.07 n.d. | 2.29 | 0 of 18 |
| Y31D E32D R34D | 2.29 1.49 1.22 1.63 1.42 1.95 | 1.66 | 2 of 18 (2.19) |
| L30Y R34M T59W Q95F | n.d. n.d. n.d. n.d. n.d. n.d. | n.d. | 0 of 18 |
| N35K | n.d. 4.03 1.57 n.d. 2.63 n.d. | 2.75 | 0 of 18 |
| R34E W56G | 0.21 0.33 -0.06 -0.02 0.01 0.14 | 0.10 | 1 of 18 (2.51) |
| S28G V29L L30M | 1.25 2.94 2.88 2.06 1.32 1.52 | 1.99 | 0 of 18 |
| N35H W56Q L102E | n.d. n.d. n.d. n.d. n.d. n.d. | n.d. | 0 of 18 |
| Q27T W56G S62R | 0.45 0.90 0.42 0.28 0.48 0.29 | 0.47 | 0 of 18 |
| V29L E61N | 1.33 1.16 1.37 1.28 1.07 1.45 | 1.27 | 2 of 18 (2.60) |
| S25D Y31F | 0.75 n.d. n.d. n.d. n.d. n.d. | 0.75 | 0 of 18 |
| Y31F K36L V39I W56E L100M | 0.80 0.90 0.53 0.82 0.53 0.85 | 0.74 | 0 of 18 |
| Y31H K36C W56R E61N | n.d. n.d. n.d. n.d. n.d. n.d. | n.d. | 0 of 18 |
| R60A | n.d. n.d. n.d. n.d. n.d. 1.92 | 1.92 | 0 of 18 |
| L30F W56K | 1.81 2.07 1.56 1.43 1.53 1.28 | 1.61 | 2 of 18 (2.54) |

Again, the first 3 entries without any signal:

| changes | log10 Kd, replicates | mean log10 Kd (nM) | control signals |
|---|---|---|---|
| S26P T59Y S103G | n.d. n.d. n.d. n.d. n.d. n.d. | n.d. | 1 of 18 (1.90) |
| S25L L30Q A57R T59K Y97P L100T | n.d. n.d. n.d. n.d. n.d. n.d. | n.d. | 0 of 18 |
| P101H | n.d. n.d. n.d. n.d. n.d. n.d. | n.d. | 0 of 18 |

Empty control strains, which show no peptide, gave a signal in 4% of pairings with all light chain designs; the median was 2.64 and 95% of these signals were weaker than 1.59. No background was subtracted. The control count says in how many pairings with the empty strains this scFv gave a signal, with their mean in brackets. A sequence measured in both rounds can read differently, since the two assays cover different ranges.

From the AlphaSeq antibody data of Li et al. 2023 (doi:10.1038/s41467-023-39022-2), copy in the FLAb collection.